From PMC7586935 (Journal of Clinical Pharmacology, 2020)

Tested on: QTcF interval of healthy volunteers
Assay: Time-matched analysis of placebo-adjusted change from baseline QTcF
Assay type: in vivo, human
Conditions: moxifloxacin 400 mg

## COc1c(N2C[C@@H]3CCCN[C@@H]3C2)c(F)cc2c(=O)c(C(=O)O)cn(C3CC3)c12 [Moxifloxacin]
N = 17, 5 min postdose
  Placebo-adjusted change from baseline QTcF, estimate (90%CI): 2.5 (–1.9 to 7.0) ms
N = 17, 10 min postdose
  Placebo-adjusted change from baseline QTcF, estimate (90%CI): 1.6 (–1.9 to 5.0) ms
N = 17, 20 min postdose
  Placebo-adjusted change from baseline QTcF, estimate (90%CI): 1.0 (–3.5 to 5.5) ms
N = 17, 0.5 h postdose
  Placebo-adjusted change from baseline QTcF, estimate (90%CI): 6.7 (2.6–10.8) ms
N = 17, 0.75 h postdose
  Placebo-adjusted change from baseline QTcF, estimate (90%CI): 13.0 (8.8–17.2) ms
N = 17, 1 h postdose
  Placebo-adjusted change from baseline QTcF, estimate (90%CI): 11.9 (8.3–15.6) ms
N = 17, 1.5 h postdose
  Placebo-adjusted change from baseline QTcF, estimate (90%CI): 12.2 (7.5–16.9) ms
N = 17, 2 h postdose
  Placebo-adjusted change from baseline QTcF, estimate (90%CI): 14.5 (9.7–19.4) ms
N = 17, 3 h postdose
  Placebo-adjusted change from baseline QTcF, estimate (90%CI): 13.9 (8.9–19.0) ms
N = 17, 4 h postdose
  Placebo-adjusted change from baseline QTcF, estimate (90%CI): 15.0 (10.3–19.7) ms
N = 17, 6 h postdose
  Placebo-adjusted change from baseline QTcF, estimate (90%CI): 9.1 (5.0–13.2) ms
N = 17, 8 h postdose
  Placebo-adjusted change from baseline QTcF, estimate (90%CI): 10.1 (6.6–13.7) ms
N = 17, 12 h postdose
  Placebo-adjusted change from baseline QTcF, estimate (90%CI): 10.0 (5.4–14.7) ms
N = 17, 16 h postdose
  Placebo-adjusted change from baseline QTcF, estimate (90%CI): 8.6 (4.6–12.6) ms
N = 17, 24 h postdose
  Placebo-adjusted change from baseline QTcF, estimate (90%CI): 7.1 (3.6–10.6) ms
